Here are results for one compound from patent publication US20240208895A1, “BRANCHED-CHAIN AMINO ACID DERIVATIVES TO TREAT DISEASE” (INTRABIO LTD., priority 2021, published 2024).

Like-named read-outs stand apart in the source and are kept apart here.

How the values of series [1] were obtained:
(§1) A Compound of the Disclosure is incubated at 1 μM, 10 μM and 100 μM with pooled liver S9 fractions from human (mixed gender) and mouse (CD1) at 1.5 mg/mL in 300 μL buffer containing phosphate 100 mM, MgCl2 2 mM, pH 7.4 at 37° C. for 0, 10, 20, 40, 60 min.
(§2) Enzyme kinetic data for uptake and metabolism of a Compound of the Disclosure is analysed by fitting the Michaelis-Menten equation to the data. V0=Vmax[S]/Km+[S], where V0 is initial velocity, [S] is substrate concentration, Vmax is maximum velocity and Km is substrate concentration at half Vmax. All fitting is performed using GraphPad Prism 8.4 software (GraphPad Software Inc). No weighting scheme is applied.

How the values of series [2] were obtained:
as §1, §2
The source holds these as a separate data set.

Broadly, the Km is the concentration of substrate that gives half-maximal velocity.

In the case of `CC(=O)NC(CC(C)C)C(=O)O` (racemic) [N-acetyl-DL-[^2H10]leucine], the Km was 69 µM in series [1] and 216 µM in series [2].
